Measured values as given in patent US8309129B2, “Nanoparticles comprising a drug, ethylcellulose, and a bile salt” (Bend Research, Inc., priority 2007, dated 2012).

Assay: Nanoparticle dissolution test of celecoxib in MFDS
Type: physicochemical
Conditions: PBS with 0.5 wt % NaTC/POPC (MFDS), ambient temperature, 100,000-dalton cutoff filtrate

Structure (SMILES): Cc1ccc(-c2cc(C(F)(F)F)nn2-c2ccc(S(N)(=O)=O)cc2)cc1 [Crystalline celecoxib, celecoxib]
- Celecoxib Concentration at 1 minute: 0.7 µg/mL
